Screening data deposited in PubChem by National Center for Advancing Translational Sciences (NCATS).
Nrf2 ARE act – Nrf2 pathway activation. AREc32 ARE-luciferase reporter (MCF7-derived line), luminescence, 24 h. actives 0.31% (n = 410,000). AID 624171. Potency, µM (doses to about 46.1 µM), for the others: at the highest dose activation, most hits filed as activators; also: potency is read from the fitted curve at half-maximal effect; % of control where 0% means no effect; nearly all actives have a fitted effect of over 65% in size
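Reporter line AREc32 (ARE-Fluc), seeded overnight in OPTI-MEM with 5% FBS; compound pin-transferred, 24 hr at 37 deg C, 5% CO2; luminescent read-out.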
PI4K2A block – inhibitors of human PI4K2A; Q9BTU6; purified PI4K2A, ADP-Glo luminescence, 1 h; stronger effect = lower value; actives 0.13% (n = 420,000); activity change, negative = inhibition, % at 76.9 µM; in the data active = activity change below about -50%; inconclusive = mostly about -30% to -49%;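 also: -100% = wells without enzyme as full effect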
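Compounds are screened against recombinant PI4K2A using PI as substrate and ATP, the latter dispensed at 300 microM. Reactions run one hour at ambient temperature before ADP-Glo detection; full inhibition defined by wells lacking enzyme.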
Nrf2 inh – inhibitors of Nrf2 signaling. actives 2.1% (n = 360,000). A549 ARE-Fluc reporter, luciferase luminescence, 18-24 h. Potency, µM (top dose mostly 46 µM), for the others: top-dose activity change, negative = inhibition, actives largely listed as inhibitors; also: potency is read from the fitted curve at half-maximal effect; % is scaled to controls: 0 for no effect and ±100 for the full control effect; nearly all actives have a fitted effect of over 60% in size
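Nrf2 activity is the BugLite luminescence, read 15 min after reagent at room temperature, following CellTiter-Fluor cytotoxicity readout (30 min, 37C). Compound titrations were applied for 18-24 h to 5000 A549 ARE_Fluc cells/well in 5% FBS OPTI-MEM.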
miR-21 FLuc – raises the signal of a miR-21 reporter; HeLa miR-21 FLuc reporter, luciferase, 48 h; Potency, µM (top dose mostly 38.3 µM), for inactives: at the highest dose reporter change, positive = more light; AID 2288; 340,000 tested, under 10 active; active = well fitted rising curve with a large enough effect; inconclusive = small, poorly fitted or top-dose-only effect; inactive = no such curve, though single readings can be large or run the other way;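 note: % of control where 0% means no effect; miR-21 action dims this reporter so a rising signal means less miR-21 action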
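Luminescence from a firefly luciferase reporter carrying a miR-21 binding site downstream, stably expressed under a CMV promoter in HeLa cells that make miR-21 endogenously, reports miRNA modulation after 48 h compound exposure up to approximately 40uM final.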
A549 tox-1 – kills or reduces viability of A549 cells in Nrf2 counter-screen; A549 ARE-Fluc cells, CellTiter-Fluor viability, 18-24 h; Potency, µM (top dose mostly 46 µM), for inactives: at the top dose activity change, negative = cytotoxicity, actives largely listed as inhibitors; actives 0.16% (n = 390,000); AID 504648; also: potency is read from the fitted curve at half-maximal effect; % is scaled to controls: 0 for no effect and ±100 for the full control effect
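A549 ARE_Fluc cells in 5% FBS OPTI-MEM were exposed to compounds in concentration-response for 18-24 h at 37 deg C. Viability was read by CellTiter-Fluor fluorescence (Ex 405/Em 525) after 30 min, before the luciferase read.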
GALK inh – galactokinase (human) inhibition | Potency, µM (doses to about 57.5 µM), for inactives: at the highest dose activity change, negative = inhibition, hits mostly inhibitors | AID 1868 | Purified GALK, Kinase-Glo residual ATP luminescence | P51570 | actives 0.007% (n = 270,000); also: potency is read from the fitted curve at half-maximal effect; % is scaled to controls: 0 for no effect and ±100 for the full control effect
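The enzyme phosphorylates galactose (100 uM) using ATP (35 uM); inhibition is detected as higher residual ATP, quantified by bioluminescence after 1 h reaction at room temperature, pH 8.0.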
FLuc counter 3 – blocks purified firefly luciferase in Nrf2 counterscreen | Potency, µM (highest dose often 57.5 µM), for the others: at the top dose activity change, negative = inhibition, actives largely listed as inhibitors | shares compounds with Nrf2 inh | purified firefly luciferase, luminescence inhibition | actives 4% (n = 1,400); also: potency is read from the fitted curve at half-maximal effect; % is scaled to controls: 0 for no effect and ±100 for the full control effect; nearly all actives have a fitted effect of over 65% in size
A549 tox-2 – toxic to A549 ARE-Fluc cells in Nrf2 counterscreen. shares compounds with Nrf2 inh. A549 ARE-Fluc cells, cytotoxicity counterscreen. Potency, µM (doses to about 46.1 µM), for the others: top-dose activity change, negative = cytotoxicity, actives largely listed as inhibitors. actives 2% (n = 1,400). AID 720523;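 also: potency is read from the fitted curve at half-maximal effect; cells exposed to compounds for 18 to 24 hours; % is scaled to controls: 0 for no effect and ±100 for the full control effect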
Nrf2 ARE inh – confirmation of Nrf2 inhibitors in A549 ARE reporter cells | shares compounds with Nrf2 inh | A549 ARE-firefly luciferase reporter, luminescence | Potency, µM (highest dose often 46.1 µM), inactives show at the top dose activity change, negative = inhibition, most hits filed as inhibitors | actives 74% (n = 1,400) | AID 720524; also: potency is read from the fitted curve at half-maximal effect; % is scaled to controls: 0 for no effect and ±100 for the full control effect; nearly all actives have a fitted effect of over 65% in size
Starred values were filed as active, the others as inactive; i = inactive; ? = inconclusive; nt = no result given. Hits are enriched below; roughly 2.2% of the tested compounds scored in any of these assays. Unless noted, calls follow the shape of the dose curve; as a rule, active = well fitted curve in the direction sought with a large enough effect; inconclusive = small, poorly fitted or top-dose-only effect, or another doubt; inactive = no such curve, though single readings can be large; an effect the other way counts as inactive or inconclusive.

(1) CC(C)(O)/C=C/C(=O)[C@](C)(O)C1[C@H](O)C[C@@]2(C)C3CC=C4C(C[C@H](O)[C@@H](O)C4(C)C)[C@]3(C)C(=O)C[C@]12C (stereo partly specified)
(2) CCN(CC)C1=NC(=[N+](CC)CC)c2ccccc21
(3) C[C@]12CC[C@H]3[C@@H](CC[C@]4(O)C[C@@H](O)CC[C@]34C=O)[C@@]1(O)CC[C@@H]2C1=CC(=O)OC1
(4) C[C@H]1O[C@@H](OC2CC[C@]3(C=O)[C@H]4CC[C@]5(C)[C@@H](C6=CC(=O)OC6)CC[C@]5(O)[C@@H]4CC[C@]3(O)C2)CC2OC(C)(C)OC21 (stereo partly specified)
(5) CCCCN=C[C@]12CCC(O)CC1(O)CCC1[C@@H]2CC[C@]2(C)[C@H](C3C=CC(=O)O3)CCC12O (stereo partly specified)
(6) CC(=O)O[C@H]1CC[C@]2(C=O)C3CC[C@]4(C)[C@@H](C5=CC(=O)OC5)CC[C@]4(O)C3CC[C@]2(O)C1 (stereo partly specified)
(7) CC(=O)O[C@H]1CC[C@@]2(C)C(=CC[C@@H]3[C@@H]2CC[C@]2(C)C(=O)CC[C@@H]32)C1
(8) CC12CCC3C(CCC4(O)CC(O)CCC34C=NO)C1(O)CCC2C1=COC(=O)C1 (stereo unspecified)
(9) CC12CCC3C(CCC4(O)CC(O)CCC34C=O)C1(O)CCC2C1=CC(=O)OC1 (stereo unspecified)
(10) COc1ccccc1N=c1scc(-c2ccc(S(=O)(=O)N3CCCC3)cc2)n1C

screen / no.	1	2	3	4	5	6	7	8	9	10
Nrf2 ARE act	13.2%	-0.2%	-2.8%	-3.5%	-3.1%	nt	-0.3%	-2.6%	-2.5%	-0.8%
PI4K2A block	-3.7	0.5	1.4	1.1	1.3	nt	2.3	0.5	0.0	-2.1
Nrf2 inh	0.411µM*	2.06µM*	0.259µM*	0.164µM*	?	0.259µM*	-4.6%	0.058µM*	0.461µM*	3.66µM*
miR-21 FLuc	nt	28.0%	nt	?	?	nt	nt	nt	nt	?
A549 tox-1	?	?	?	?	-16.3%	-25.2%	-1.3%	?	?	-17.3%
GALK inh	nt	3.0%	nt	-0.2%	0.7%	nt	nt	nt	nt	nt
FLuc counter 3	0.6%	4.3%	1.3%	-0.8%	nt	3.8%	nt	1.2%	2.2%	1.0%
A549 tox-2	?	-24.0%	-55.2%	?	nt	?	nt	?	?	-25.7%
Nrf2 ARE inh	1.3µM*	4.61µM*	0.411µM*	0.0651µM*	nt	0.366µM*	nt	0.103µM*	0.411µM*	6.51µM*

Next part; it opens with the three that closed the last part.
(8) CC12CCC3C(CCC4(O)CC(O)CCC34C=NO)C1(O)CCC2C1=COC(=O)C1 (stereo unspecified)
(9) CC12CCC3C(CCC4(O)CC(O)CCC34C=O)C1(O)CCC2C1=CC(=O)OC1 (stereo unspecified)
(10) COc1ccccc1N=c1scc(-c2ccc(S(=O)(=O)N3CCCC3)cc2)n1C
(11) CCCCCCCCCC(CC)c1ccc(S(=O)(=O)O)cc1 (stereo unspecified)
(12) CC(C)N1CC=C(c2c[nH]c3ccccc23)CC1
(13) COc1ccc(CNC(=O)CSCc2cnn(-c3ccccc3)c2-n2cccc2)cc1OC
(14) Cc1ccccc1C(=O)Nc1ccc(C(=O)OCc2cc(=O)n3nc(C4CC4)sc3n2)cc1
(15) COc1cc(C2c3cc4c(c(O)c3CC3COC(=O)C32)OCO4)cc(OC)c1O (stereo unspecified)
(16) O=C1NC2C(O)C(O)C(O)C(O)C2c2cc3c(c(O)c21)OCO3 (stereo unspecified)
(17) O=C1NC2C(=CC(O)C(O)C2O)c2cc3c(c(O)c21)OCO3 (stereo unspecified)
(18) O=c1[nH]c(=S)[nH]c(O)c1N=Nc1ccc(-c2ccccc2)cc1[N+](=O)[O-]
(19) COc1ccc(-c2nc(CSCC(=O)N3CCN(c4ccc(F)cc4)CC3)c(C)o2)cc1
(20) CCc1ccc(-c2nc(CSCC(=O)N3CCN(c4ccc(F)cc4)CC3)c(C)o2)cc1

screen / no.	8	9	10	11	12	13	14	15	16	17	18	19	20
Nrf2 ARE act	-2.6%	-2.5%	-0.8%	nt	3.0%	-0.2%	-0.7%	nt	-2.3%	-2.2%	nt	-0.3%	0.4%
PI4K2A block	0.5	0.0	-2.1	i	-6.2	1.4	2.2	nt	6.0	5.1	nt	2.1	-11.7
Nrf2 inh	0.058µM*	0.461µM*	3.66µM*	nt	1.64µM*	9.2µM*	nt	?	0.92µM*	0.259µM*	nt	3.26µM*	7.31µM*
miR-21 FLuc	nt	nt	?	nt	18.9%	?	?	nt	nt	nt	-48.8%	?	24.2%
A549 tox-1	?	?	-17.3%	nt	?	-9.3%	-20.3%	-1.3%	1.16µM*	?	nt	-8.0%	-20.2%
GALK inh	nt	nt	nt	nt	2.3%	nt	nt	nt	nt	nt	0.9%	nt	nt
FLuc counter 3	1.2%	2.2%	1.0%	nt	-1.3%	1.6%	nt	nt	2.9%	0.8%	nt	-12.2%	-14.3%
A549 tox-2	?	?	-25.7%	nt	-10.3%	-21.7%	nt	nt	?	?	nt	-24.0%	-7.3%
Nrf2 ARE inh	0.103µM*	0.411µM*	6.51µM*	nt	nt	8.2µM*	nt	nt	1.3µM*	nt	nt	7.31µM*	nt

(21) Cc1c(P(=S)(c2ccccc2)c2ccccc2)[n+]2ccccc2n1CCc1ccccc1
(22) O=C(Nc1ccc2oc(-c3cccnc3)nc2c1)c1ccc(-c2cccc(Cl)c2)o1
(23) NC1(c2ccccc2)CCCCC1
(24) CCOc1ccc(-c2c(C)n(-c3ccc(OCC)cc3)c3[n+]2CCCCC3)cc1
(25) N=C1/C(=C\c2ccc(OC(=O)c3ccccc3Cl)cc2)C(=O)N=C2SC(N3CCOCC3)=NN12
(26) ClC1=C(Cl)C(Cl)=C(Cl)C1=C/C=C/c1ccccc1
(27) CC(=O)c1ccc(N2CCN(S(=O)(=O)c3cc(-c4onc(C)c4C)ccc3C)CC2)cc1
(28) CCOc1ccc(NC(=O)CN(c2ccc(Cl)cc2C)S(=O)(=O)c2ccccc2)cc1
(29) CC(=O)OC1CC(OC2C(O)CC(OC3C(O)CC(OC4CCC5(C)C(CCC6C5CCC5(C)C(C7=CC(=O)OC7)C(O)CC65O)C4)OC3C)OC2C)OC(C)C1OC1OC(CO)C(O)C(O)C1O (stereo unspecified)

screen / no.	21	22	23	24	25	26	27	28	29
Nrf2 ARE act	0.3%	3.8%	nt	7.0%	5.0%	?	0.6%	3.3%	-2.5%
PI4K2A block	3.0	-1.1	i	6.0	-1.8	-8.6	0.2	-0.5	-0.8
Nrf2 inh	?	?	nt	2.59µM*	?	?	9.2µM*	?	0.326µM*
miR-21 FLuc	nt	9.4%	nt	?	-11.2%	0.9%	20.9%	?	nt
A549 tox-1	-26.8%	0.6%	nt	-0.5%	-14.0%	?	-0.7%	-16.8%	?
GALK inh	nt	nt	nt	-3.7%	-19.1%	2.9%	nt	nt	nt
FLuc counter 3	nt	nt	nt	-1.3%	nt	nt	2.1%	nt	3.7%
A549 tox-2	nt	nt	nt	?	nt	nt	0.7%	nt	?
Nrf2 ARE inh	nt	nt	nt	1.16µM*	nt	nt	6.51µM*	nt	0.291µM*
